# Yeast mating assay 2: variants of the scFv Ab-95

Reference: Engelhart et al. 2022, doi:10.1038/s41597-022-01779-4. File: FLAb, binding data.

Target: peptide PDVDLGDISGINAS, taken from heptad repeat 2 (HR2) of SARS-CoV-2 spike.

Each scFv is VH, the linker GGGGSGGGGSGGGGS, VL, as in the parent Ab-95, and differs from it in the CDRs of the light chain only.
VH: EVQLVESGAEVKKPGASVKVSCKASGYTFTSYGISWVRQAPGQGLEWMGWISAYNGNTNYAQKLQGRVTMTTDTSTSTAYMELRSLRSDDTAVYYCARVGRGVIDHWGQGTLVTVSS
VL: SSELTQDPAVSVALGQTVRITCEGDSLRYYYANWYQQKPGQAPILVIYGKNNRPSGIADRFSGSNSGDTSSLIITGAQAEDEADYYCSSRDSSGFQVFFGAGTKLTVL

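In library AAYL52, one, two or three CDR residues were substituted; doubles and triples were drawn at random. In AlphaSeq, yeast of one mating type display the scFv and yeast of the other type display the target. Binding brings cells together so that they mate, and sequencing counts the barcode pairs among the diploids. The ratio of observed to expected reads was calibrated, replicate by replicate, on BCL2-family standards whose Kd was known from biolayer interferometry. The assay was run in three technical replicates.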

Sequences are complete VL domains.
Every variant below is changed at S92 of the VL (sequential numbering).
The read-out is the apparent dissociation constant on a log10 scale (nM): the lower, the stronger.
Where no diploid with the target was found in that replicate, the entry reads "ND": below detection, most likely a poor binder, though not proof of it.
For reference, the parent read 2.31 as the reference entry and 2.25 as a member of this library.

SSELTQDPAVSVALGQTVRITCEGDSLRYYYANWYQQKPGQAPILVIYGKNNRASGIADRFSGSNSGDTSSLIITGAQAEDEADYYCSVRDASGFQVFFGAGTKLTVL: 2.33, 2.09, 1.85 (controls 1 of 9).
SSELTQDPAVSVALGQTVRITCEGDSLRYYYNNWYQQKPGQAPILVIYGKNNRPSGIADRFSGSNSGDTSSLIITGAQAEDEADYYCSSRDWSGFQVRFGAGTKLTVL: 4.02, 3.09, 4.06 (controls 2 of 9).
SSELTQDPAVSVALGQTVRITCEGDSLRYYYANWYQQKPGQAPILVIYGKNNRPSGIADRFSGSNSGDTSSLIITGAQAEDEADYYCSSTDPSGFQYFFGAGTKLTVL: ND, ND, ND (controls 0 of 9).
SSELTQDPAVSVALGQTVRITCEGDSLRYYYKNWYQQKPGQAPILVIYGKNNRPSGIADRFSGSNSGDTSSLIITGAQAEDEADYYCSSRDCSGFQVFFGAGTKLTVL: ND, ND, ND (controls 1 of 9).
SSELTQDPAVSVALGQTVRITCEADSLRYYYANWYQQKPGQAPILVIYGKNNRPSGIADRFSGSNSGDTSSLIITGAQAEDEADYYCSSRDPSGRQVFFGAGTKLTVL: 2.05, 2.42, 2.02 (controls 2 of 9).
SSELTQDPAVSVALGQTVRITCEIDSLRYYYANWYQQKPGQAPILVIYGKNNRPSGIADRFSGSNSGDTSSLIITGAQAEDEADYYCSSRDKSGFPVFFGAGTKLTVL: 4.58, 4.39, 3.23 (controls 4 of 9).
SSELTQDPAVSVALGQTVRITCEGDSLRYYYANWYQQKPGQAPILVIYGKNNLPSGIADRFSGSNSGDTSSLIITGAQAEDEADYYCSSRDGSGFQVFFGAGTKLTVL: 3.11, 2.41, 2.14 (controls 1 of 9).
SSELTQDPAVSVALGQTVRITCEGDELRYYYANWYQQKPGQAPILVIYGKNNRPHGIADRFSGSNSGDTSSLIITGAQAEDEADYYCSSRDVSGFQVFFGAGTKLTVL: ND, ND, ND (controls 1 of 9).
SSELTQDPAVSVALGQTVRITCEGDSLRYPYANWYQQKPGQAPILVIYGKNNRPSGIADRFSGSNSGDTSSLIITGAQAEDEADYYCSSRDMSGFQTFFGAGTKLTVL: 1.88, 1.86, 1.91 (controls 5 of 9).
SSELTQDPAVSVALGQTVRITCENDSLRYYYANWYQQKPGQAPILVIYGKNNRPSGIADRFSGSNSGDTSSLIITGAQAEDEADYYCSSRDNSGFQVTFGAGTKLTVL: 3.31, ND, 3.44 (controls 3 of 9).
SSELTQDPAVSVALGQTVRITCEGDSLRYYYANWYQQKPGQAPILVIYWKNNRPSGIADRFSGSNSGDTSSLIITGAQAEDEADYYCSSRDISGFQVFFGAGTKLTVL: 5.45, 3.17, ND (controls 2 of 9).
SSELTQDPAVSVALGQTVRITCEGDSLRYYYANWYQQKPGQAPILVIYGKNNRLSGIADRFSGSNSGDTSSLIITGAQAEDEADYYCSSRVCSGFQVFFGAGTKLTVL: 3.44, 3.97, 3.32 (controls 2 of 9).
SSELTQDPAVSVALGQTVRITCEGDSLRYYYANWYQQKPGQAPILVIYGKNNRCCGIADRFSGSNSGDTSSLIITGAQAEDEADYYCSSRDTSGFQVFFGAGTKLTVL: 3.04, 3.85, 3.86 (controls 0 of 9).
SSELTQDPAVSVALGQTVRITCEGDSLRYYYAHWYQQKPGQAPILVIYGKNNRPSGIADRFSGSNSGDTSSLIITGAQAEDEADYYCSSRDHSGFQMFFGAGTKLTVL: ND, 4.69, 4.06 (controls 2 of 9).
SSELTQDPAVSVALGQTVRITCMGDSLRYYYANWYQQKPGQAPILVIYGKNNRPSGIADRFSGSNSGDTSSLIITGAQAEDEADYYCSSRDMSGFQVNFGAGTKLTVL: 4.21, 3.47, ND (controls 1 of 9).
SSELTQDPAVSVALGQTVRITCEGDSLRYYYANWYQQKPGQAPILVIYGKNNRPSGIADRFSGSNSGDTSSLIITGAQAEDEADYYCLSRDFLGFQVFFGAGTKLTVL: 2.46, 1.87, 2.32 (controls 1 of 9).
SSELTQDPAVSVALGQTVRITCEGDSLRYYYANWYQQKPGQAPILVIYIKNNRPSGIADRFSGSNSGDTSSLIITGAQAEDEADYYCSSRDELGFQVFFGAGTKLTVL: ND, ND, ND (controls 3 of 9).
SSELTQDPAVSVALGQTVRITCEGDSLRYYYANWYQQKPGQAPILVIYGSNNRESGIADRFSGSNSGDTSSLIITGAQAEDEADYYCSSRDVSGFQVFFGAGTKLTVL: 3.96, ND, ND (controls 2 of 9).
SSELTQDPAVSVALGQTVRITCEDDSLRYYYANWYQQKPGQAPILVIYGKNNRPSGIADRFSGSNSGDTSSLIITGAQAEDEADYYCSSRDRSGFQGFFGAGTKLTVL: 2.82, ND, ND (controls 2 of 9).
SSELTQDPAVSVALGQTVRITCEGDSLRYYYAPWYQQKPGQAPILVIYGKNNEPSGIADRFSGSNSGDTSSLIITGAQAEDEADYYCSSRDWSGFQVFFGAGTKLTVL: ND, ND, ND (controls 0 of 9).
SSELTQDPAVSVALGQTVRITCEGDSLRYYYANWYQQKPGQAPILVIYGKNNRPSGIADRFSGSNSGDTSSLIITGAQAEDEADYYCSSRDNSAFDVFFGAGTKLTVL: 2.56, 2.51, 3.03 (controls 3 of 9).
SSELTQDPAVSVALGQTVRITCEGDSLRWYYANWYQQKPGQAPILVIYGKNNRPSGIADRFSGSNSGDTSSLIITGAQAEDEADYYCSSRYASGFQVFFGAGTKLTVL: ND, ND, 3.39 (controls 2 of 9).
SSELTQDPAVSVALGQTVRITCEGDSLRYYYANWYQQKPGQAPILVIYGRNNRPSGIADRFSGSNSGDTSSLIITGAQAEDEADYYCSIRDNSGFQVFFGAGTKLTVL: 3.77, ND, ND (controls 1 of 9).
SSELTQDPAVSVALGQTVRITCEGDSLSYYYANWYQQKPGQAPILVIYGKNTRPSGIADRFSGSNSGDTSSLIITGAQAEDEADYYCSSRDNSGFQVFFGAGTKLTVL: 3.14, 3.45, 2.36 (controls 1 of 9).
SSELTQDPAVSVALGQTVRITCSGDSLRYYYANWYQQKPGQAPILVIYGKNNRPSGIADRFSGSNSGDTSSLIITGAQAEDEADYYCSSRDPGGFQVFFGAGTKLTVL: 2.06, 2.54, 2.15 (controls 6 of 9).
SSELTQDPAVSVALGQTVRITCEGDSLRYYYANWYQQKPGQAPILVIYGKNVRPSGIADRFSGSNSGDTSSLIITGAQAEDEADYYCMSRDNSGFQVFFGAGTKLTVL: 2.17, 1.95, 1.57 (controls 3 of 9).

2 of these entries, quoted again:

VL	replicates, log10 nM	signal with controls
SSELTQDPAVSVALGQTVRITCEGDSLRYYYANWYQQKPGQAPILVIYGKNNRCCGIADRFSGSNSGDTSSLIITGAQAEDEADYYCSSRDTSGFQVFFGAGTKLTVL	3.04, 3.85, 3.86	0/9
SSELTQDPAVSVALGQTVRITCEGDSLRYYYANWYQQKPGQAPILVIYWKNNRPSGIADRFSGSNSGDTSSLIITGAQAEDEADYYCSSRDISGFQVFFGAGTKLTVL	5.45, 3.17, ND	2/9

Background: pairings of library AAYL52 with three empty control strains gave a value in 28% of cases (median 3.91, 5th percentile 2.90). Values in that range, when seen in few replicates, are hard to tell from nonspecific mating. For each scFv, signals with the empty controls are counted beside the result.